Reference: US9079866B2, “Flap modulators” (JANSSEN PHARMACEUTICA NV, priority 2013, dated 2015)
Read-outs that look alike come from different tables or passages of the source.

Protein sequences, listed by entry. Tags and fused reporters are not part of them. Lines headed by an entry give the natural chain unless they say otherwise; changes in a name come on top.
UniProt P20292: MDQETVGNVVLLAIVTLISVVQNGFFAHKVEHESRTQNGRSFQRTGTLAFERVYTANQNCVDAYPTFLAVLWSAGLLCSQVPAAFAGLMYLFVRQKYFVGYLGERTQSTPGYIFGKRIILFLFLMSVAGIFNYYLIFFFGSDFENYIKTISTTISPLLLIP

Legend:
human FLAP = human FLAP (Homo sapiens (Human), UniProt P20292); assay: FLAP binding assay (HTRF format)
Protocol: (§1) The ability of the compounds of the present invention to treat a FLAP-mediated disease and/or disorder, or associated symptoms or complications thereof, was determined using the following procedures. Binding assay data represent the average value obtained from two different assay plates, with samples run in duplicate on each plate. Human whole blood assay data represent a single replicate on an assay plate using whole blood from at least one healthy donor.
Data are expressed as a HTRF ratio.

[1] = system: leukotriene pathway in human whole blood (LTB4 levels); assay: Human whole blood assay (A23187-stimulated LTB4); assay type: cell-based; details: read-out: LTB4 IC50 1:1
Protocol: as §1
An in vitro cellular assay was performed using human whole blood collected in heparin-containing tubes, which was used to test the ability of compounds to modulate the leukotriene pathway in human whole blood. The blood was diluted 1:1 in RPMI medium, pre-incubated for 15 min at 37° Celsius with test compounds at various concentrations, and then stimulated with calcium ionophore, A23187 (7 μg/mL), for 30 min at 37° Celsius. The samples were then centrifuged and plasma was removed. The plasma was diluted in assay buffer and LTB4 levels were measured using a commercial kit (Enzo Life Sciences). The concentration of each compound that was required for half-maximal inhibition (modulation) of recombinant enzyme activity (IC50) was calculated by a 4-parameter equation using the program GraphPad Prism (GraphPad software).

[2] = human FLAP wild type, HTRF format, average of two plates, duplicates
[3] = read-out: FLAP Binding wild type HTRF Ki

Compound | Ki (human FLAP; [2]) [nM] | Ki (human FLAP; [3]) [nM] | IC50 [1] [nM] | Ki (human FLAP; wild type FLAP, HTRF format) [nM]
CC(CO)NS(=O)(=O)c1ccccc1-c1ccc(-c2cnc(N)cn2)c(F)c1 (stereo in doubt) [Example 32, 4′-(5-Aminopyrazin-2-yl)-3′-fluoro-N-[(1S)-2-hydroxy-1-methylethyl]biphenyl-2-sulfonamide] | 8 |  |  | 
Nc1cnc(-c2ccc(-c3ccccc3S(=O)(=O)N3CC[C@H](N)C3)cc2F)cn1 [Example 93, (S)-5-(2′-((3-Aminopyrrolidin-1-yl)sulfonyl)-3-fluoro-[1,1′-biphenyl]-4-yl)pyrazin-2-amine] | 127 |  |  | 
C[C@H](CC#N)NS(=O)(=O)c1ccccc1-c1ccc(-c2cnc(N)cn2)c(F)c1 [Example 170, (R)-4′-(5-Aminopyrazin-2-yl)-N-(1-cyanopropan-2-yl)-3′-fluoro-[1,1′-biphenyl]-2-sulfonamide] |  | 1 | 12 | 
C[C@@H](CC#N)NS(=O)(=O)c1ccccc1-c1ccc(-c2cnc(N)cn2)c(F)c1 [Example 171, (S)-4′-(5-Aminopyrazin-2-yl)-N-(1-cyanopropan-2-yl)-3′-fluoro-[1,1′-biphenyl]-2-sulfonamide] |  | 2 | 13 | 
Nc1ncc(-c2ccc(-c3ccccc3O[C@@H]3CCCNC3)cc2F)cn1 [Example 633, 5-{3-Fluoro-2′-[(3R)-piperidin-3-yloxy]biphenyl-4-yl}pyrimidin-2-amine] |  |  |  | > 10000
Nc1cnc(-c2ccc(-c3ccccc3O[C@H]3CCCNC3)cc2F)cn1 [Example 634, 5-{3-Fluoro-2′-[(3S)-piperidin-3-yloxy]biphenyl-4-yl}pyrazin-2-amine] |  |  |  | 311
